Ab-14 light chain CDR variants: yeast mating affinities

Data: MIT Lincoln Laboratory AlphaSeq set, Li et al. 2023, doi:10.1038/s41467-023-39022-2, as distributed in FLAb.

Target peptide (SARS-CoV-2 spike, HR2 region): PDVDLGDISGINAS

Ab-14 is the parent antibody, in scFv form: VH, then the linker GGGGSGGGGSGGGGS, then VL. The heavy chain is unchanged in all variants.
VH: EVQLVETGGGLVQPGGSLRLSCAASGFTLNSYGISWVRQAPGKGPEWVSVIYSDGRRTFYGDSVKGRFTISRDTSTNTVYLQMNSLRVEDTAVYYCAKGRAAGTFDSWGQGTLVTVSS
VL: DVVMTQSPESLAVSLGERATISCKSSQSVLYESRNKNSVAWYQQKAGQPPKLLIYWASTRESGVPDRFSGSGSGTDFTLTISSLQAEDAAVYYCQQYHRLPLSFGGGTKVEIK

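Phage display of a naive human antibody library on the peptide gave the parent. These sequences belong to a second round, designed from the earlier measurements on random variants of the parent. Their group label is 14L_En_Gen (En: ensemble of fine-tuned language models; Gen: genetic algorithm). The assay is AlphaSeq: two haploid yeast populations carry antibody and antigen on their surface. Mating (16 h, 30 °C) was followed by selection of diploids and sequencing of their barcodes. The ratio of observed to expected reads was calibrated, replicate by replicate, on BCL2-family standards whose Kd was known from biolayer interferometry. Mating was done six times.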

The parent's light chain CDRs are KSSQSVLYESRNKNSVA, WASTRES, QQYHRLPLS; each variant's own CDRs replace them letter for letter. Numbers give log10(Kd / nM), so 0 is 1 nM and 3 is 1 µM. Smaller is tighter. Averages over replicates are reported, and they cover detected replicates only. A pair that was not seen in that replicate is written "n.d."; this usually means weak binding, but a binder can also be missed. The authors averaged sequences with at least three values out of six and counted those with two or fewer as poor binders. Empty control strains, which show no peptide, gave a signal in 4% of pairings with all light chain designs; the median was 2.64 and 95% of these signals were weaker than 1.59. No background was subtracted. For each scFv, signals with the empty controls are counted beside the result, with their mean in brackets. The range of this assay differs from that of the first round, and the authors advise against merging the two. The parent sequence was in this pool as ten entries: three were never detected, three once, and four in most replicates, with averages from 0.34 to 2.37.

{"CDR-L1": "KLMGIMRLEQKKSNSIA", "CDR-L2": "EVNERSE", "CDR-L3": "QQYDRLPLS", "log10 Kd (nM) by replicate": "1.76 1.89 2.00 2.05 2.00 1.70", "mean, log10 nM": "1.90", "control signals": "2 of 18 (2.50)"}
{"CDR-L1": "KISFLTNQTFEHSNNVA", "CDR-L2": "EMVTREK", "CDR-L3": "QQYNRLPLS", "log10 Kd (nM) by replicate": "0.35 0.27 0.21 -0.03 0.22 0.07", "mean, log10 nM": "0.18", "control signals": "0 of 18"}
{"CDR-L1": "KISQMIRVGSTASNSIA", "CDR-L2": "EEVTRAK", "CDR-L3": "QQYHRLPLF", "log10 Kd (nM) by replicate": "1.70 1.51 0.99 1.02 0.94 1.39", "mean, log10 nM": "1.26", "control signals": "0 of 18"}
{"CDR-L1": "TISQMTSLFSQSINNVA", "CDR-L2": "EVSTREP", "CDR-L3": "QQYDRLPLI", "log10 Kd (nM) by replicate": "0.72 -0.01 0.21 0.18 0.21 0.43", "mean, log10 nM": "0.29", "control signals": "0 of 18"}
{"CDR-L1": "HMSAVTLMGSRTRNSVA", "CDR-L2": "QMTTREN", "CDR-L3": "QQYDRLPLA", "log10 Kd (nM) by replicate": "0.97 0.70 0.62 0.47 0.85 0.85", "mean, log10 nM": "0.74", "control signals": "2 of 18 (2.51)"}
{"CDR-L1": "MISQLYNMGQFAINSVA", "CDR-L2": "QASERCN", "CDR-L3": "QQYDRLPLT", "log10 Kd (nM) by replicate": "2.21 2.73 2.64 1.34 2.19 2.13", "mean, log10 nM": "2.21", "control signals": "2 of 18 (1.54)"}
{"CDR-L1": "KLSMTHEMEHVNRNSVA", "CDR-L2": "ELVTRMS", "CDR-L3": "QQYNRLPLS", "log10 Kd (nM) by replicate": "0.87 1.61 1.00 1.26 1.27 1.49", "mean, log10 nM": "1.25", "control signals": "1 of 18 (1.47)"}
{"CDR-L1": "TISMVMNHMTKNANNVA", "CDR-L2": "NMDMREK", "CDR-L3": "QQYDRLPLS", "log10 Kd (nM) by replicate": "0.05 -0.17 0.07 -0.43 0.03 0.17", "mean, log10 nM": "-0.05", "control signals": "1 of 18 (2.96)"}
{"CDR-L1": "QIYQAMHTLMQMKDNVA", "CDR-L2": "DVNERGD", "CDR-L3": "QQYYRLPLS", "log10 Kd (nM) by replicate": "0.84 0.73 0.48 1.03 0.49 0.34", "mean, log10 nM": "0.65", "control signals": "0 of 18"}
{"CDR-L1": "KITTTMRFEQKQSNNIA", "CDR-L2": "EVTTRSK", "CDR-L3": "QQYYRLPLA", "log10 Kd (nM) by replicate": "0.18 0.48 0.93 1.14 0.73 0.74", "mean, log10 nM": "0.70", "control signals": "0 of 18"}
{"CDR-L1": "KISQMARVGSTHSNSIA", "CDR-L2": "EEAKRAD", "CDR-L3": "QQYHRLPLA", "log10 Kd (nM) by replicate": "n.d. 1.58 2.55 1.91 1.29 1.97", "mean, log10 nM": "1.86", "control signals": "0 of 18"}
{"CDR-L1": "MVSQLMLWGHLAKNSIA", "CDR-L2": "EAQMRLN", "CDR-L3": "QQYDRLPLF", "log10 Kd (nM) by replicate": "n.d. n.d. 2.39 n.d. n.d. n.d.", "mean, log10 nM": "2.39", "control signals": "0 of 18"}
{"CDR-L1": "KIGMTLNTMLHQKNNVA", "CDR-L2": "DLVEREN", "CDR-L3": "QQYFRLPLS", "log10 Kd (nM) by replicate": "0.03 0.46 -0.08 0.15 0.38 0.48", "mean, log10 nM": "0.24", "control signals": "1 of 18 (2.62)"}
{"CDR-L1": "KIGQTLNQLSHQKNNVA", "CDR-L2": "DLVMREK", "CDR-L3": "QQYHRLPLS", "log10 Kd (nM) by replicate": "0.29 0.09 0.23 0.28 0.29 0.30", "mean, log10 nM": "0.25", "control signals": "0 of 18"}
{"CDR-L1": "KISQMVRVGSTHNNSIA", "CDR-L2": "EEAKRAD", "CDR-L3": "QQYHRLPLA", "log10 Kd (nM) by replicate": "0.59 1.14 0.52 n.d. n.d. n.d.", "mean, log10 nM": "0.75", "control signals": "1 of 18 (0.95)"}
{"CDR-L1": "KISSMVKVGMTHQNSIA", "CDR-L2": "EEQTRAK", "CDR-L3": "QQYHRLPLS", "log10 Kd (nM) by replicate": "0.75 0.82 0.51 0.84 0.71 1.40", "mean, log10 nM": "0.84", "control signals": "1 of 18 (2.34)"}
{"CDR-L1": "MIGQMLGWESNKIHSVA", "CDR-L2": "QANLRED", "CDR-L3": "QQYDRLPLE", "log10 Kd (nM) by replicate": "1.34 2.01 1.45 1.54 1.70 1.84", "mean, log10 nM": "1.65", "control signals": "1 of 18 (2.91)"}
{"CDR-L1": "IVSQLMLWGYHAKNSIA", "CDR-L2": "EAETRIN", "CDR-L3": "QQYDRLPLF", "log10 Kd (nM) by replicate": "n.d. n.d. n.d. n.d. n.d. n.d.", "mean, log10 nM": "n.d.", "control signals": "0 of 18"}
{"CDR-L1": "HMSMLTLGGMRARNSVA", "CDR-L2": "QMTTREN", "CDR-L3": "QQYDRLPLV", "log10 Kd (nM) by replicate": "0.64 0.66 0.52 0.31 0.89 1.04", "mean, log10 nM": "0.68", "control signals": "4 of 18 (3.26)"}
{"CDR-L1": "KLSSLTGTEKVHGNNVA", "CDR-L2": "EMETRER", "CDR-L3": "QQYNRLPLA", "log10 Kd (nM) by replicate": "0.56 1.02 1.00 0.90 1.11 0.84", "mean, log10 nM": "0.90", "control signals": "1 of 18 (2.23)"}
{"CDR-L1": "HMSMLTLQGQRYRNAVA", "CDR-L2": "QMTTREN", "CDR-L3": "QQYDRLPLI", "log10 Kd (nM) by replicate": "1.91 1.26 2.13 1.56 2.72 2.71", "mean, log10 nM": "2.05", "control signals": "1 of 18 (2.41)"}
{"CDR-L1": "HMSALSLMGSRNRNSVA", "CDR-L2": "QMTTREN", "CDR-L3": "QQYDRLPLI", "log10 Kd (nM) by replicate": "0.73 0.70 0.79 1.06 0.59 1.13", "mean, log10 nM": "0.83", "control signals": "2 of 18 (2.74)"}
{"CDR-L1": "SLGLVTMLEYAERNNVA", "CDR-L2": "NNSTREK", "CDR-L3": "QQYDRLPLS", "log10 Kd (nM) by replicate": "2.13 1.98 1.59 1.77 2.42 2.05", "mean, log10 nM": "1.99", "control signals": "2 of 18 (2.78)"}
{"CDR-L1": "TISQMSTLFSQNINNVA", "CDR-L2": "EVSTRLN", "CDR-L3": "QQYDRLPLM", "log10 Kd (nM) by replicate": "0.06 1.68 1.01 0.53 1.64 0.17", "mean, log10 nM": "0.85", "control signals": "0 of 18"}
{"CDR-L1": "MISQLMNMGYFAINSVA", "CDR-L2": "QASLRCN", "CDR-L3": "QQYDRLPLM", "log10 Kd (nM) by replicate": "n.d. n.d. n.d. n.d. n.d. n.d.", "mean, log10 nM": "n.d.", "control signals": "0 of 18"}

Extract of 2 entries:

| CDR-L1 | CDR-L2 | CDR-L3 | log10 Kd (nM) by replicate | mean, log10 nM | control signals |
|---|---|---|---|---|---|
| MIGQMLGWESNKIHSVA | QANLRED | QQYDRLPLE | 1.34 2.01 1.45 1.54 1.70 1.84 | 1.65 | 1 of 18 (2.91) |
| KIGQTLNQLSHQKNNVA | DLVMREK | QQYHRLPLS | 0.29 0.09 0.23 0.28 0.29 0.30 | 0.25 | 0 of 18 |